Patent US11547697B2, “Heterocyclic compounds and uses thereof” (MILLENNIUM PHARMACEUTICALS, INC., priority 2009, dated 2023)

The chains behind the UniProt entries cited, without tags or fusion partners. Where a name states a change or a piece, a line headed by the entry shows the natural chain unless it says otherwise.
UniProt P42336, whole entry: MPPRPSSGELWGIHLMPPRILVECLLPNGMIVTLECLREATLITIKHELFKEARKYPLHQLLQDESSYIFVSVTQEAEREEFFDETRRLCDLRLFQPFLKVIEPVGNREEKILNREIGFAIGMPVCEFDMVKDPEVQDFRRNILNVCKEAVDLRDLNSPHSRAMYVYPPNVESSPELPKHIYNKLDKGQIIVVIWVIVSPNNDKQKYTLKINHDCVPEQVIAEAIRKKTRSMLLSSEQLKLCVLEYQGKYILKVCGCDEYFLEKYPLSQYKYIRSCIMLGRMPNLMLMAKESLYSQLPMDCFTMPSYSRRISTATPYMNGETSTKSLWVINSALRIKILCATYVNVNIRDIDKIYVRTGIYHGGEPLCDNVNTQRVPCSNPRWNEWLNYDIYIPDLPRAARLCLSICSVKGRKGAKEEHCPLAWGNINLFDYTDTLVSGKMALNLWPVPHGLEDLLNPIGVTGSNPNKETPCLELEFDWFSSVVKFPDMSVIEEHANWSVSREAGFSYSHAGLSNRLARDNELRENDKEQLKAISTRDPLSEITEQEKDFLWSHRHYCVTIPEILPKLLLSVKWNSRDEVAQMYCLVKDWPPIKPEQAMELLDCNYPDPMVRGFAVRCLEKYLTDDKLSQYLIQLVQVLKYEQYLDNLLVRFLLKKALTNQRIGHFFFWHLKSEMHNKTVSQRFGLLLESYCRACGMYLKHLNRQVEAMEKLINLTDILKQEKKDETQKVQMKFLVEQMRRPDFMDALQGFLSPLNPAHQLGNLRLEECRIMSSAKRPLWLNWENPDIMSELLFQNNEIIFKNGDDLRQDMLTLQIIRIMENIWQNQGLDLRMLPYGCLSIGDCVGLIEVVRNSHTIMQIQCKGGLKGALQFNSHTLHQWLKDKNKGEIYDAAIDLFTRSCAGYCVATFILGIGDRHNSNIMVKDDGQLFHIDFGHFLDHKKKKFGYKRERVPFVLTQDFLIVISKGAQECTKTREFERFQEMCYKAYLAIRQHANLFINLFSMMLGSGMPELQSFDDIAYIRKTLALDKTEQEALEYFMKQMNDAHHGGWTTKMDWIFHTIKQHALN
UniProt P42338: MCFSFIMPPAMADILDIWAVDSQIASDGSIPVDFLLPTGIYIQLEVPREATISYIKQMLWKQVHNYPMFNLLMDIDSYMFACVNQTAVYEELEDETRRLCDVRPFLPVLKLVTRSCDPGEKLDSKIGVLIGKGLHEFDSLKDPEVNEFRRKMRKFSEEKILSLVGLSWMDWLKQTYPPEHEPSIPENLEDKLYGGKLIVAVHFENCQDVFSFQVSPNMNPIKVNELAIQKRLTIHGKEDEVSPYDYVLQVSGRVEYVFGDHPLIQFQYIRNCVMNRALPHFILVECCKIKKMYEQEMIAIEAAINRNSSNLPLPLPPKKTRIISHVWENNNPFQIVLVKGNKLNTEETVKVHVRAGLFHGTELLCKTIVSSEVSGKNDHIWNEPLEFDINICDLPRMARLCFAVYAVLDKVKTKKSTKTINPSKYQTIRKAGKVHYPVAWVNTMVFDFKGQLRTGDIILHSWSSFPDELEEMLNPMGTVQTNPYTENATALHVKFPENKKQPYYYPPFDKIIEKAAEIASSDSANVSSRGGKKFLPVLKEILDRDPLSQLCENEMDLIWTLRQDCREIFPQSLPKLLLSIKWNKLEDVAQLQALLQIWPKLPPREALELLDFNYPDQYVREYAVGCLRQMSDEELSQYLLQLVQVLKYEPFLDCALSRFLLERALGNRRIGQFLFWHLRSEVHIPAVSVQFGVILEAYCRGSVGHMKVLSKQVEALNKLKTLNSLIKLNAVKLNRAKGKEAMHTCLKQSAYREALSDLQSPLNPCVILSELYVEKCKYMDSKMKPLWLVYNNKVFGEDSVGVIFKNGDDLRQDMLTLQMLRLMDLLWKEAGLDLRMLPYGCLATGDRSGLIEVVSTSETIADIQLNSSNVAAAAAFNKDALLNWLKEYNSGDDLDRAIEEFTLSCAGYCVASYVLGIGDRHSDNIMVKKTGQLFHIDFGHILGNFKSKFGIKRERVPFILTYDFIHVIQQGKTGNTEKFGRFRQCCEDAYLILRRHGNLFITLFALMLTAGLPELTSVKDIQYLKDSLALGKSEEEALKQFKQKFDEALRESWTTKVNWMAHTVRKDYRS
UniProt O00329: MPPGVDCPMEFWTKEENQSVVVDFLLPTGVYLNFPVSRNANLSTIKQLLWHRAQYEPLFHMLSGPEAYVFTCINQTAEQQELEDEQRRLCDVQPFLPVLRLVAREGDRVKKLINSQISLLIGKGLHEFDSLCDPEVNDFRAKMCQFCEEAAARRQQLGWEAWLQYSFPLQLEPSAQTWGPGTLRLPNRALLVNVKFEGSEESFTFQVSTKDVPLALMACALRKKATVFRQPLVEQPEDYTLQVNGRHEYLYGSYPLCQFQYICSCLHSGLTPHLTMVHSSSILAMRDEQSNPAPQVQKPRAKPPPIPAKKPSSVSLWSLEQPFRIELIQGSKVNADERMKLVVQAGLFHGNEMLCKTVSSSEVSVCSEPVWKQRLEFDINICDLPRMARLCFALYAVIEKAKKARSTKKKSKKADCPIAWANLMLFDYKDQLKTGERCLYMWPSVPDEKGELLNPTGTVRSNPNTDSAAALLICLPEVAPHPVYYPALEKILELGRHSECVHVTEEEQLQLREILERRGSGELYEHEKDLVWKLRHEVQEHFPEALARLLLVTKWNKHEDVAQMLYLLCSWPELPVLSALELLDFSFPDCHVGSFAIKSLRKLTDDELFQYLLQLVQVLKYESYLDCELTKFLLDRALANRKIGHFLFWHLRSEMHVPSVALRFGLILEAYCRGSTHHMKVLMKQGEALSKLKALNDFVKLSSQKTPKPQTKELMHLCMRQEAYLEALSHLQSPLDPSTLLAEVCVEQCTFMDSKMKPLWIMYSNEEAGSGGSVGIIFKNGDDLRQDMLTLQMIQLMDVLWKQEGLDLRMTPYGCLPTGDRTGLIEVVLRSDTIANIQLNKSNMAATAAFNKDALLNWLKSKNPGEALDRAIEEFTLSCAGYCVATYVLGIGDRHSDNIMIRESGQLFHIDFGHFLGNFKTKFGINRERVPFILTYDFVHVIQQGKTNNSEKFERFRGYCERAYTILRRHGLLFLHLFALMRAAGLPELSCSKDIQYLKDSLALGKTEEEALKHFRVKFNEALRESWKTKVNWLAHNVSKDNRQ
UniProt P48736: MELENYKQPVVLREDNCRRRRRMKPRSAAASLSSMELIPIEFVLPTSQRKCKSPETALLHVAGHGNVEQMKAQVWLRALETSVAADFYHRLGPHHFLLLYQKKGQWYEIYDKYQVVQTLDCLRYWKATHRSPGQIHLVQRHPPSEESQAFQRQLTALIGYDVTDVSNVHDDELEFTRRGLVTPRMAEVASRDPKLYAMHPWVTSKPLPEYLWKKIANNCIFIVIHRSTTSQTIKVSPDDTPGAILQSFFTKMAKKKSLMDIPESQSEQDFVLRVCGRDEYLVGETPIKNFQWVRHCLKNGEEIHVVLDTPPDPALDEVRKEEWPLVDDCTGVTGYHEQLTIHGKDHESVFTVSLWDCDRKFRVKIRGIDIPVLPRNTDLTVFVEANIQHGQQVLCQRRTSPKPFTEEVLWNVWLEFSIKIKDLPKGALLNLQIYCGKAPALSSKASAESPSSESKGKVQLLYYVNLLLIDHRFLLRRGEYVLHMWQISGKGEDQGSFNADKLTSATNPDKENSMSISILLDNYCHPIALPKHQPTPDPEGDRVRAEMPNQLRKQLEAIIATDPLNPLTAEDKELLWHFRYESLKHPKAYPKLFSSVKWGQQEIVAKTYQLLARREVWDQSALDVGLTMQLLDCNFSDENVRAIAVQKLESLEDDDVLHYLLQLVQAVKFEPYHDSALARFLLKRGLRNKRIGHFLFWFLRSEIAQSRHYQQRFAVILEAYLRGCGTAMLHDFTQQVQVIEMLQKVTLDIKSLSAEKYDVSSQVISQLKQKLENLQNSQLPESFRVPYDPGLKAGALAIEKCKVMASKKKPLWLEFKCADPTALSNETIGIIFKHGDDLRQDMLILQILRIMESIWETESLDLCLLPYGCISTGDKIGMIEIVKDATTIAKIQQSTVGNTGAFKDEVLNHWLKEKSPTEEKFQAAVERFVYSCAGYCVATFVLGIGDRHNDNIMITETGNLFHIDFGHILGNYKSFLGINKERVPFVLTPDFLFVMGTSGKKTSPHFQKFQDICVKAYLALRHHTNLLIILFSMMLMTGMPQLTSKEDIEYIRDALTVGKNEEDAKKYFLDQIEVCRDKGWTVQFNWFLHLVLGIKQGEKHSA

How the values were obtained:
Type in all cases: biochemical
p110α/p85α = p110α/p85α (Homo sapiens (Human), UniProt P42336); assay: PI 3-Kinase (human) HTRF assay, p110α/p85α; conditions: read-out: PI3K α IC50
Excerpt: (§1) Both percent inhibition and IC50 for DYRK1A, HIPK3, and CLK1 kinases are also provided.

p110β/p85α = p110β/p85α (Homo sapiens (Human), UniProt P42338); assay: PI 3-Kinase (human) HTRF assay, p110β/p85α; conditions: read-out: PI3K β IC50
Excerpt: as §1

p110δ/p85α = p110δ/p85α (Homo sapiens (Human), UniProt O00329); assay: PI 3-Kinase (human) HTRF assay, p110δ/p85α; conditions: read-out: PI3K δ IC50
p110γ = p110γ (Homo sapiens (Human), UniProt P48736); assay: PI 3-Kinase (human) HTRF assay, p110γ; conditions: read-out: PI3K γ IC50
recombinant mTOR = recombinant mTOR (Homo sapiens (Human), UniProt P42345); assay: mTOR inhibition assay (radiometric or LanthaScreen TR-FRET); conditions: read-out: MTORC IC50

Compound: Nc1nc2cc(-c3ccc4ncnc(N5CCOCC5)c4c3)ccc2o1 [compound 22]
- IC50 (p110α/p85α): < 100 nM
- IC50 (p110β/p85α): < 100 nM
- IC50 (p110δ/p85α): < 100 nM
- IC50 (p110γ): < 100 nM
- IC50 (recombinant mTOR): < 1000 nM
